US20040018487A1

Biological target: HPV 16 E6 C-terminal PL peptide (TQL), biotinylated (HPV 16)
Test: G assay, HPV16 E6 PL peptide titrated against a constant amount of GST-PDZ

With “GST-PSD95 PDZ domains 1-3 (from UniProt P78352 61-402)” the EC50 was 1000 nM.
